pIC50: −log10 of the molar value.

Chains of the proteins cited; added tags and fusions are not shown.
UniProt O96028, whole entry: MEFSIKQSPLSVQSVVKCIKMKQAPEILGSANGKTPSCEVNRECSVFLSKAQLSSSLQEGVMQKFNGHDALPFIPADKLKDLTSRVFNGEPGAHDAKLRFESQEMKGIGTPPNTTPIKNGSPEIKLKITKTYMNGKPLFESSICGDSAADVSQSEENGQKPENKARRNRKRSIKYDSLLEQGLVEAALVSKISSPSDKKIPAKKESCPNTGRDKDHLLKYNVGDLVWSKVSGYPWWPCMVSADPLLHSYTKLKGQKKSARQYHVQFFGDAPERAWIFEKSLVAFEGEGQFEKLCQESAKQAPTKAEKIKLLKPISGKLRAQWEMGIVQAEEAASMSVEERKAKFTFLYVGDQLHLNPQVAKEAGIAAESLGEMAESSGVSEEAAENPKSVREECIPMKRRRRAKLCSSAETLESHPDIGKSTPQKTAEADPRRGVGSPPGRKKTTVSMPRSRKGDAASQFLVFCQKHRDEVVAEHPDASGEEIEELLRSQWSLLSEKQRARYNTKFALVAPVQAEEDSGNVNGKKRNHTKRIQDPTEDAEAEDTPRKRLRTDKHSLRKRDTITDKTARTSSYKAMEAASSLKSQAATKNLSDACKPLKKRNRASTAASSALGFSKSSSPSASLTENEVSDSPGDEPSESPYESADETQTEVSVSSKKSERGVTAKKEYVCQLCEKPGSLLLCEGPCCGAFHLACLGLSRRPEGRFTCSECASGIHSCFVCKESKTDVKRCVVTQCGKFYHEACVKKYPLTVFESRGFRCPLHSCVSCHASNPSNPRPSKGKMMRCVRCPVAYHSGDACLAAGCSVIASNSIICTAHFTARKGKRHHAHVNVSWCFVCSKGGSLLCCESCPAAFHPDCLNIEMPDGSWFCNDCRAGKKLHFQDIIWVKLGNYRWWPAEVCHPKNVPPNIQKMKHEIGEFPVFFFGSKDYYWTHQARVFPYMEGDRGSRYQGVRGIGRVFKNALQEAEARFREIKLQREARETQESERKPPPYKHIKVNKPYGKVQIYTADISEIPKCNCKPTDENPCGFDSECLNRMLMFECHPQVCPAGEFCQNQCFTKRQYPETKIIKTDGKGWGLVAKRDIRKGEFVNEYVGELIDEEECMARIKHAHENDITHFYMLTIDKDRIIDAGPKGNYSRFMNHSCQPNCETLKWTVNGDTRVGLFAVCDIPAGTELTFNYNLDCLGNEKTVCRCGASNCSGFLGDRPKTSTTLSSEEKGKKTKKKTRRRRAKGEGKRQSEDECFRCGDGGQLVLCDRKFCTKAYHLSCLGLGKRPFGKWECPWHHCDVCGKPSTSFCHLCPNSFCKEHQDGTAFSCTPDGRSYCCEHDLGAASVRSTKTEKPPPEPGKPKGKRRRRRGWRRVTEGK

These results are taken from patent US11420970B1 (NOVARTIS AG, priority 2019, dated 2022).

Assay [1] has as its system cellular H3K36me2 level in multiple myeloma cell line KMS11 (t(4;14)+). Briefly: H3K36me2 cellular ELISA assay in KMS11-Par line. The conditions noted are these: read-out: H3K36me2 ELISA in KMS11-Par, 72 hours. It counts as cell-based. In general terms: ELISA stands for enzyme-linked immunosorbent assay.
Another assay addresses NSD2 [1-1365] (Homo sapiens (Human), UniProt O96028). The assay is described as follows: LC-MS/MS-based NSD2 enzymatic assay (SAH production). The conditions noted are these: read-out: NSD2 IC50.
Assay [2] has as its system cellular H3K36me2 level in multiple myeloma cell line KMS11 (t(4;14)+). The assay is described as follows: H3K36me2 cellular FRET assay in KMS11-Par line. The format is cell-based. The conditions noted are these: read-out: H3K36me2 FRET in KMS11-Par.

As for `Nc1ncnc2c1ncn2Cc1cc(-c2ccc(F)c(F)c2)ncc1N1CCC[C@](N)(Cn2cccn2)C1`, the pIC50 in assay [1] was 5.85; at NSD2 [1-1365], 6.00 to 8.00; in assay [2] it was 6.47.
